Assay results: ChEMBL document CHEMBL5260854, “Discovery of Novel TRPM8 Blockers Suitable for the Treatment of Somatic and Ocular Painful Conditions: A Journey through pKa and LogD Modulation” (J Med Chem, 2021)

Amino acid sequences for entries named in this document (tags omitted).
UniProt Q9HBA0, whole entry: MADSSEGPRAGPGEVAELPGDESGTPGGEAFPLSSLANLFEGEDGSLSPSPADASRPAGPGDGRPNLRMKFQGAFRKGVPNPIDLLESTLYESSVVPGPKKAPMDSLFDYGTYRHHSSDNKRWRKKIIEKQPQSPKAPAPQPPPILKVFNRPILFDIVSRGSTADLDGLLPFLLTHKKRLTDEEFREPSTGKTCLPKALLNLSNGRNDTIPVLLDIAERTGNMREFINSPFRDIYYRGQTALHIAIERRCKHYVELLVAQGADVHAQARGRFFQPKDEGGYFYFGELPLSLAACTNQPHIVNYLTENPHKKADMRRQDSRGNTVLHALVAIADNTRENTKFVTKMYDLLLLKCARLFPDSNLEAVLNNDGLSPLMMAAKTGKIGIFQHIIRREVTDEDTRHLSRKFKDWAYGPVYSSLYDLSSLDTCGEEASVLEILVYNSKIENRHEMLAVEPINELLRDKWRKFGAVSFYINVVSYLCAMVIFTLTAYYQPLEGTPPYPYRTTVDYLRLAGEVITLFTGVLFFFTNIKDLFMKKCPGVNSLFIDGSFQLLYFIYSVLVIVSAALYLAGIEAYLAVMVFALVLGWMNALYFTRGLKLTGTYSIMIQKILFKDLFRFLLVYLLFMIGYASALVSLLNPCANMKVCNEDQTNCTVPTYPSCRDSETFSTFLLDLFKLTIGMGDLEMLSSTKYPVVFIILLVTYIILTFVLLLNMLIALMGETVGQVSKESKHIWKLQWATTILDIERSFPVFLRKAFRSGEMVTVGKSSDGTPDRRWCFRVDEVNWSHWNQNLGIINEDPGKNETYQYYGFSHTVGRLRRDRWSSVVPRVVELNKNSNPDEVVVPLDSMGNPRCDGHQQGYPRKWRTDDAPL
UniProt Q15858, whole entry, looked up: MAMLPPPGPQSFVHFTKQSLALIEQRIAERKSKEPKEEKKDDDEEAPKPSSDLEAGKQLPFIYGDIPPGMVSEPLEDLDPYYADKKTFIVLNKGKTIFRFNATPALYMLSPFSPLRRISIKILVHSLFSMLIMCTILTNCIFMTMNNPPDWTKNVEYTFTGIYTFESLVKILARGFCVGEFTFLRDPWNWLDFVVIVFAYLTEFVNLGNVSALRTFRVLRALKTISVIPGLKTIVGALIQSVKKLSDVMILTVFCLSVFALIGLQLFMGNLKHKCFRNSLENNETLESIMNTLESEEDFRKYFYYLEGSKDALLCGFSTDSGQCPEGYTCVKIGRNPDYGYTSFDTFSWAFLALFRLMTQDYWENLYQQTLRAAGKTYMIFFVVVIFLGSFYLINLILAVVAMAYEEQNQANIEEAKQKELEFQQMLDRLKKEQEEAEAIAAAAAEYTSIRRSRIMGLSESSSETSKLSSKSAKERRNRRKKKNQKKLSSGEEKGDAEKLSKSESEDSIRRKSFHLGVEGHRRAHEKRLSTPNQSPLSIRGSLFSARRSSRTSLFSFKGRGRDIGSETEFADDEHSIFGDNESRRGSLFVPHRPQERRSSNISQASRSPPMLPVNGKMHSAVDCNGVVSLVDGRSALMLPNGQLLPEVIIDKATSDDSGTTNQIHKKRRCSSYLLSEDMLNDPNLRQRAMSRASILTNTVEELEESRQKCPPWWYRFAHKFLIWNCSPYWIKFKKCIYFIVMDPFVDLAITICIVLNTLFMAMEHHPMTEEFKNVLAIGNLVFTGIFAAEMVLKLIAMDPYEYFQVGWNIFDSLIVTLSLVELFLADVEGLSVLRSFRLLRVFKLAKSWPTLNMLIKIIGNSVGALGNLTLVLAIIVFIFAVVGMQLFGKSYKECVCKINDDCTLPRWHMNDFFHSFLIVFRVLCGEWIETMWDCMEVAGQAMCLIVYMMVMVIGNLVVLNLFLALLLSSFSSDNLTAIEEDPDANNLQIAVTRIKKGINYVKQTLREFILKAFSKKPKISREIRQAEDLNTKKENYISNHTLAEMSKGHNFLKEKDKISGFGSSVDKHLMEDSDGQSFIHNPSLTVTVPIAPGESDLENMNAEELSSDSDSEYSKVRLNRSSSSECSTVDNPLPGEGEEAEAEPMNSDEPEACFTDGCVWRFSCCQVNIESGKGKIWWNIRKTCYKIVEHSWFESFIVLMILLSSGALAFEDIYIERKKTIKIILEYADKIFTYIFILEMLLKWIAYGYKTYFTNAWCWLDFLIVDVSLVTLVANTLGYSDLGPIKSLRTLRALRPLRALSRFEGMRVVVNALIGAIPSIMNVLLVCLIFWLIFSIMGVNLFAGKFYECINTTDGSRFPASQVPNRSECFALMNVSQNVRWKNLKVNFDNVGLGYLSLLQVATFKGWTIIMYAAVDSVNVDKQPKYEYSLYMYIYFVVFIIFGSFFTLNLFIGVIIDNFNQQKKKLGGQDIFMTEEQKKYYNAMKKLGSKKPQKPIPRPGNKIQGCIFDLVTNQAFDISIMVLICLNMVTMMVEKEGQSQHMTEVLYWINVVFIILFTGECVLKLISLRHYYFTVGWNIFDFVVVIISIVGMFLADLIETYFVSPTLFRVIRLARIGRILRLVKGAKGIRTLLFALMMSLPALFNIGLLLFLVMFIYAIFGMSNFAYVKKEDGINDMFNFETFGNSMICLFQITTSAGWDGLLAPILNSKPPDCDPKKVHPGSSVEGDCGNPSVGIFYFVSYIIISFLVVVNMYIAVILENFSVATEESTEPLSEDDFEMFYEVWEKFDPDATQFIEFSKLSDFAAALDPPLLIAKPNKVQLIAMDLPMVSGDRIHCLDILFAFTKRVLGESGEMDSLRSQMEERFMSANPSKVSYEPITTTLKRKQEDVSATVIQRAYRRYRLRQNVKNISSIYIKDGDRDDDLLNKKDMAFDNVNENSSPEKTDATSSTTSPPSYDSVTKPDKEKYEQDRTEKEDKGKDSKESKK
UniProt O75762, whole entry: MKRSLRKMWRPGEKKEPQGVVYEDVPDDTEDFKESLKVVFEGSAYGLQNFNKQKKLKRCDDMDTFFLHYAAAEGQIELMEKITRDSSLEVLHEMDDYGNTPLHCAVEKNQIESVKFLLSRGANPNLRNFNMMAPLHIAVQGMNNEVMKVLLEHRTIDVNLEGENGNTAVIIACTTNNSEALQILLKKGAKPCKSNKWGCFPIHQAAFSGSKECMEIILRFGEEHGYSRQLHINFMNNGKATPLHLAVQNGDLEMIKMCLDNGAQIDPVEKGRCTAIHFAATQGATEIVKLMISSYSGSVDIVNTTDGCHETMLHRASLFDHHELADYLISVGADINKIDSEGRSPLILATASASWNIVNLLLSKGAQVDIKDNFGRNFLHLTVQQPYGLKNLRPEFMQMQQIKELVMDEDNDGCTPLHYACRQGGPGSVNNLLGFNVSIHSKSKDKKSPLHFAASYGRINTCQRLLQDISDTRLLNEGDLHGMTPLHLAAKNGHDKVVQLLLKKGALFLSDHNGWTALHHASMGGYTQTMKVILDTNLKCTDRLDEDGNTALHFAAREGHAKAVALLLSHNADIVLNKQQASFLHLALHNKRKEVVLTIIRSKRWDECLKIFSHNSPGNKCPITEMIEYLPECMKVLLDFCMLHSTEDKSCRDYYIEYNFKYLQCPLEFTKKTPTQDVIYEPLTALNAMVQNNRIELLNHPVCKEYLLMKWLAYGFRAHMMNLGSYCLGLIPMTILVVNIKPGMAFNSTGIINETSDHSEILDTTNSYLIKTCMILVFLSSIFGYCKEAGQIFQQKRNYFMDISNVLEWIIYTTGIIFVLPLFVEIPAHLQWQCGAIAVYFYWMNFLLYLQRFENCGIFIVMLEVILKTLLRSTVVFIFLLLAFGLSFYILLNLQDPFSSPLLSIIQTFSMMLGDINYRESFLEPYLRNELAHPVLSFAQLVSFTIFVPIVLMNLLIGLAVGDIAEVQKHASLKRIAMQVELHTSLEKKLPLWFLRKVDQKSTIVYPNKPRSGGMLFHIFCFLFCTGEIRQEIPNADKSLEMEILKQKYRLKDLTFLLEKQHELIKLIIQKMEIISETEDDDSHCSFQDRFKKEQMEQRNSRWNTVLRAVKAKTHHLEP
UniProt Q8NER1, whole entry: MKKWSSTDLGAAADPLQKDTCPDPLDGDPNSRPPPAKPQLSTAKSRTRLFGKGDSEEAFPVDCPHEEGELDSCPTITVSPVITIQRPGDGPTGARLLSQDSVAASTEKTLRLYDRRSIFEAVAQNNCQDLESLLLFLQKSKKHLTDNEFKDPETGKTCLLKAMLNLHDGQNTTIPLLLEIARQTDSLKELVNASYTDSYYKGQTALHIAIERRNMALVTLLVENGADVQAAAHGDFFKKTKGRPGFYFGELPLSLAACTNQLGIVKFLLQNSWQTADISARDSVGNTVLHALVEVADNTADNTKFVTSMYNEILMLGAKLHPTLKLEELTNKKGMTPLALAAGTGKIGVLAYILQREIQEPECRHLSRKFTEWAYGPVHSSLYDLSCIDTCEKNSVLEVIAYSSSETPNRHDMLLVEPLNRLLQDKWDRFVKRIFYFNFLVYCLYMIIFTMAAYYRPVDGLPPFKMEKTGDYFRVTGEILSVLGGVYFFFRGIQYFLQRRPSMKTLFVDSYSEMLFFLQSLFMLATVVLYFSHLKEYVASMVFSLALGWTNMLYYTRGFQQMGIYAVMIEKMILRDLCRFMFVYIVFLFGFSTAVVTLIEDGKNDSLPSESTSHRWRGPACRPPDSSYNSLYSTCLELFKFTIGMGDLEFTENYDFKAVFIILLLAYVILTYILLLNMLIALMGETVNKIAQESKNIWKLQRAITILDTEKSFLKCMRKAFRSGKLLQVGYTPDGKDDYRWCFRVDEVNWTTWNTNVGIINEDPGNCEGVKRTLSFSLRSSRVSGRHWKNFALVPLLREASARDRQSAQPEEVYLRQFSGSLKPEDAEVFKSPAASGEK

Key:
[1] = target: Transient receptor potential cation channel subfamily V member 4 (Homo sapiens) (UniProt Q9HBA0); experiment: Inhibition of TRPV4 (unknown origin) upto 100 uM
[2] = target: Sodium channel protein type 9 subunit alpha (Homo sapiens) (UniProt Q15858); experiment: Inhibition of Nav1.7 (unknown origin)
[3] = target: Transient receptor potential cation channel subfamily A member 1 (Homo sapiens) (UniProt O75762); experiment: Inhibition of TRPA1 (unknown origin) upto 100 uM
[4] = target: Transient receptor potential cation channel subfamily V member 1 (Homo sapiens) (UniProt Q8NER1); experiment: Inhibition of TRPV1 (unknown origin) upto 100 uM

Measured: inhibition

O=C(c1sc(-c2cccc(F)c2)nc1O)N1CCCO1
inactive: all assays above

Activity calls are given as the source filed them.
